The record followed here is publication PMC8246065, “Cellular stress promotes NOD1/2‐dependent inflammation via the endogenous metabolite sphingosine‐1‐phosphate” (The EMBO Journal, 2021).

For the assay, the system named is GFP. To be noted: Fig 6C.

For the compound `CCCCCCCCCCCCC/C=C/[C@@H](O)[C@@H](N)COP(=O)(O)O` [S1P, sphingosine‐1‐phosphate], the “Direct interaction with GFP by MST” value is “not observed”.
